Measured values reported in patent publication US10308916B2, “Omega-transaminase mutants with activity improvements toward ketones and methods for producing optically pure amines” (Industry-Academic Cooperation Foundation, Yonsei University, priority 2015, dated 2019).

The compounds below were run against T1, OATA W58L (Brucella anthropi, UniProt A6WVC6, W58L). Details: isopropylamine as amino donor.

Compound | Reaction rate OATAWSBL
O=C1CCc2ccccc21 | 7.6 ± 0.1 μm/h
O=C1CCCc2ccccc21 | 2.1 ± 0.1 μm/h

What follows are compounds tested against T1, OATA W58L. Details: second value of cell.

Compound | kcat, OATAW58L
C[C@H](N)c1ccccc1 [(S)-α-methylbenzylamine] | 24000, 20000 ×10^−3 s^−1
CC(C)N [Isopropylamine] | 9700, 9300 ×10^−3 s^−1
CC(=O)c1ccccc1 [Ketone 1a, acetophenone] | 9.7, 540 ×10^−3 s^−1
CC(=O)C(=O)O [pyruvate, pyruvic acid] | 2600, 19000 ×10^−3 s^−1
